Results from patent US11173144B2, “Adrenergic receptor modulating compounds and methods of using the same” (The Board of Trustees of the Leland Stanford Junior …, priority 2016, dated 2021).

Assay: Microsomal stability assay, human
Details: 60 min

COc1ccccc1OCCNC[C@H](O)COc1ccc(O)cc1 [Compound 43]
stability in human microsomes: almost no reduction
